Biological target: DLK (Homo sapiens (Human), UniProt Q12852)
Test: DLK biochemical assay (TR-FRET, MKK7 phosphorylation)
Protocol: DLK assay is a biochemical assay format designed to screen for inhibitors of DLK. Enzymatic activity of DLK was measured by monitoring phosphorylation of the physiological substrate MKK7 (MAP2K7, Dual specificity mitogen-activated protein kinase kinase 7). Phosphorylation was detected by a TR-FRET system whereby His-tagged MKK7 was labeled by a XL665-labeled anti-His antibody (FRET acceptor, emission 665 nm). DLK phosphorylates MKK7 at T275/S277, which was detected by an Eu-labeled anti-phospho-MKK7 (T275/S277) antibody (F RET donor, excitation 340 nm). Phosphorylation of MKK7 results in an increased TR-FRET signal (Ratio XL665-channel/Eu-channel) and inhibition of enzymatic activity of DLK decreases the TR-FRET signal.
Assay Protocol for 1536 MTP format: test compounds were predispensed (60 nl) in test plates; +3 μl DLK solution (10 nM DLK, catalytic domain, Carna Biosiences, 0.6 mM DTT in assay buffer); +2 μl substrate solution (15 nM MKK7, LDB; 60 μM ATP; 0.4 mM DTT in assay buffer); 90 min incubation at RT; +2 μl detection mix (5 nM XL665-labeled anti-His antibody, Cisbio; 0.1 nM Eu-labeled anti-phospho-MKK7 (T275/S277), Cisbio/Millipore in detection buffer); 16 h incubation at 37° C.; endpoint measurement BMG (HTRF). […]

The chains behind the UniProt entries cited, without tags or fusion partners. Residues count along the entry.
UniProt Q12852, 1-520: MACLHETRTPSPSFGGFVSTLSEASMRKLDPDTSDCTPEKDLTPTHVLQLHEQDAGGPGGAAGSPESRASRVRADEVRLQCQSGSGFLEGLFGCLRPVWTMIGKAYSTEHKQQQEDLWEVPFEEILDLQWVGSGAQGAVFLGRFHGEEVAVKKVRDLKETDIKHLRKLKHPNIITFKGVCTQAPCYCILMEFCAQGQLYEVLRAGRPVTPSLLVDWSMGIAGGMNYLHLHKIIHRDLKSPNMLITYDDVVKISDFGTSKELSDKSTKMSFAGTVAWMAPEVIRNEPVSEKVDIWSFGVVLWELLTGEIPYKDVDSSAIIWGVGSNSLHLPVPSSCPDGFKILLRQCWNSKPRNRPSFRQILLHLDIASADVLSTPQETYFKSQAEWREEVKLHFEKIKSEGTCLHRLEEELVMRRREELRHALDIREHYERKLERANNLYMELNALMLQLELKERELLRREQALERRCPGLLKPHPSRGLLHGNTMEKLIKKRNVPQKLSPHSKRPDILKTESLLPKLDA

IC50: > 30 µM
Structure (SMILES): CC(C)NC(=O)c1cc(-c2csc(C(=O)NCc3ccc(F)cc3)c2)cn2ncnc12 [Compound 389]

From patent publication US20230382904A1, “SUBSTITUTED 4-([1,2,4]TRIAZOLO[1,5-a]PYRIDIN-6-YL)THIOPHENE-2-CARBOXAMIDE DERIVATIVES AND USE THEREOF” (The Johns Hopkins University, priority 2020, published 2023)
